Experimental findings from patent US20240398831A1, “COMPOSITIONS COMPRISING SMALL MOLECULE REGULATORS OF TUMOR IMMUNITY AND METHODS OF USING SAME” (Duke University, priority 2021, published 2024) are described below.

For one series, the system named is iBP tumors. In words: iBP autochthonous melanoma mouse model (tumor growth, flow cytometry). Format: in vivo. The conditions noted are these: E2 vs placebo. The source says: Mice. C57BL/BJ, LysMCre (B6.129P2-Lyz2^tm1(cre)lfo/J) Pmel (B6.Cg-Thy1^a/Cy Tg(TcraTcrb)8Rest/J) mice were from Jackson Laboratories (Bar Harbor, ME). Age matched mice were used for all the studies. LysMCre mice were bred to Esr1^f/f mice to generate Esr1^f/f; LysMCre and littermate control LysMCre and Esr1^f/f mice. iBP (Braf^V600E/WT, Pten^f/fmTyrCreERT2) mice were generated by crossing breeders Braf^WT/WT/Pten^f/f, mTyrCreERT2 mice to BRAF^V600E, Pten^f/f mice. The mice were housed in secure animal facility cages in 12 hour light:dark cycles at temperature around 25° C. and 70% humidity. Mice had access to ad-libitum food and water. NSG (NOD.Cg-Prkd^scid Il2rg^tm1Wjl/SzJ) mice were from the Division of Laboratory Animal Resources (Duke University). The NSG animals were fed with a GL3 diet and were kept in pathogen free conditions.
Tumor models and cells. […] Tumors were measured thrice weekly using an electronic caliper. Tumor volumes were calculated by the formula V=L×(W×W)/2. For iBP mouse tumors, volumes were calculated by the formula V=L×B×H. For tumor growth rate studies mice were euthanized when the tumors reached a maximum size of 2000 mm^3.
Ovarlectomy and subcutaneous pellet Insertion. […] The mouse was then removed from anesthesia and kept in a clean cage and monitored until conscious. The mice were monitored for recovery for 10 days. […]

Series [1] relates to T cells co-cultured with BMDM. In words: T cells co-cultured with bone marrow-derived macrophages (BMDM) polarized to M2. The class given is cell-based, mouse. The conditions noted are these: E2 treated ERα^f/f macrophages, TCM. On the procedure: In vitro bone marrow-derived macrophage differentiation. For this purpose, bone marrow cells were aseptically collected from 8-10 weeks old female C57BL/6J mice by crushing the femurs and tibias in PBS, […] and 2 mM EDTA. Cells were added to ACK buffer to lyse the red blood cells for 2 mins with intermediate vortexing. The solution was filtered through a 40 μm strainer to remove bone fragments. To differentiate bone marrow cells to macrophages the cells were plated in DMEM media (100%) or DMEM media (70%) and 30% tumor-conditioned media, supplemented with 10% heat-inactivated charcoal-stripped serum in the presence of 30 ng/mL MCSF (Cat #312-02, PeproTech). After 3 days cells were supplemented with 50% of respective fresh media. On day 6 the media was removed and replaced with fresh media. When the cells are fully differentiated to macrophages on day 7, they are treated overnight with either DMSO, E2 (1 nM) or E2+fulvestrant (100 nM). […]
T cell proliferation assay and staining. […] Stained T cells were then counted and plated in 96-well plates coated with anti-CD3 antibody (0.5 μg/mL, Cat #19851, ThermoFisher Scientific) anti-CD28 antibody (1 μg/mL, Cat #16-0281-86, Thermo Fisher Scientific) at desired density (250,000 T cells/50,000 CD11b or BMDM) in the presence of IL2 (50 ng/mL) (Cat #212-12, PeproTech). […]

The subject of another series is CD4+ and CD8+ T cells. In words: T cell proliferation assay and staining, direct treatment of T cells in vitro. Format: cell-based, mouse. The conditions noted are these: E2 (1 nM), 3 days. The procedure: T cells were isolated from naive WT C57BLJ6J mice and sub-optimally activated with CD3/D28 and IL2 for 3 days in the presence or absence of E2 (1 nM) and E2 (1 nM)+fulvestrant (100 nM). FIG. 17C and FIG. 17H show the percentage of CD44^+CD69^+ activated CD8^+ T cells (FIG. 17C) and CD4^+ T cells (FIG. 17H) from experiments described above. FIG. 17D and FIG. 17I show the percentage of GZMB^+ activated CD8^+ T cells (FIG. 17D) and CD4^+ T cells (FIG. 17I) from experiments described above. FIG. 17E and FIG. 17J show the percentage of IFNγ^+ activated CD8^+ T cells (FIG. 17E) and CD4^+ T cells (FIG. 17J) from experiments described above. Data are expressed as individual data points and represented as mean±S.E.M. Significance was calculated by one way ANOVA.
T cell proliferation assay and staining. CD3+ T cells were isolated from the spleens of C57BL/6J or P-mel mice with magnetic bead-based T cell isolation kit (Cat #19851, StemCell Technologies). […] Stained T cells were then counted and plated in 96-well plates coated with anti-CD3 antibody (0.5 μg/mL, Cat #19851, ThermoFisher Scientific) anti-CD28 antibody (1 μg/mL, Cat #16-0281-86, Thermo Fisher Scientific) at desired density (250,000 T cells/50,000 CD11b or BMDM) in the presence of IL2 (50 ng/mL) (Cat #212-12, PeproTech). […]

Regarding 17β-estradiol [E2], in the series with iBP tumors, the “number of intra-tumoral CD8+ cytotoxic T cells” value is “decreased”. In addition, in series [1], the “expression of cytotoxic T cell markers (GZMB, IFNγ)” value was “did not show similar decrease”. The “proliferation or cytotoxic capabilities of CD4+ or CD8+ T cells” value with CD4+ and CD8+ T cells is “did not affect”.
